Source: patent publication US20080009551A1, “Methods and Compositions for Identifying Modulators of G Protein-Coupled Receptors” (Arena Pharmaceuticals, Inc., priority 2003, published 2008)
Counter-ions that a name gives are not always drawn.

Each molecule was assayed against T1, Rm3(GURC)-Rlu (Rattus norvegicus, UniProt P08483, A184R) (assay: not given). Settings: not given.
T1 sequence (P08483 with tags, fused parts or gaps A184R): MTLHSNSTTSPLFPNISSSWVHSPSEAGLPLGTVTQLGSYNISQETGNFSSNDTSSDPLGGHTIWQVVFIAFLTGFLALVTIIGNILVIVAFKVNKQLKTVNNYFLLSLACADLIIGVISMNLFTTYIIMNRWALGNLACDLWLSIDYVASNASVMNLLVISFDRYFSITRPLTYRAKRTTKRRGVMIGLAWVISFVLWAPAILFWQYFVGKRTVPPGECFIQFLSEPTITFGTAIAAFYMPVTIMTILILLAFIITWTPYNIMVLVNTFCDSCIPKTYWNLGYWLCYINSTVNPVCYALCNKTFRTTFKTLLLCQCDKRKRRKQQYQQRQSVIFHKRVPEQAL
Assay type: cell-based
For `Cc1ccc(OCC(O)C(C)NC(C)C)c2c1CCC2` (stereo not drawn) [ICI-118,551], the “effect on the luciferase activity of Rm3(GURC)-Rlu” value (“effect on the luciferase activity” for short) was “no significant effect”. In the case of `C[N+](C)(C)CC#CCN1CCCC1=O` [Oxotremorine M], the “EC50 in luciferase upregulation assay relative to competition binding assay (right-shift)” value is reported as 1000 fold. `C[C@@H]1OC(=O)[C@H]2C[C@H]3CCCC[C@@H]3[C@@H](/C=C/[C@H]3CCC[C@H](C)N3C)[C@@H]12` [himbacine] was tested, and the “EC50 in luciferase upregulation assay relative to competition binding assay (right-shift)” value was “small right-shift”. In the case of `N=C(N)SCCc1cnc[nH]1` [imetit], the “effect on the luciferase activity” value is reported as “did not change”. For `NCCc1c[nH]c2ccc(O)cc12` [serotonin], the “effect on the luciferase activity” value was “did not change”.

These molecules were tested against T1, Rm3(GURC)-Rlu (assay: cell-based). Settings: 20 h, read-out: response (activity) in LOPAC screen.
For `CN1[C@@H]2CC[C@H]1C[C@@H](OC(c1ccccc1)c1ccccc1N)C2` (stereo partly drawn) [aminobenztropine], the activity at 2 µM was > 140%. For `C[C@@H]1OC(=O)[C@H]2C[C@H]3CCCC[C@@H]3[C@@H](/C=C/[C@H]3CCC[C@H](C)N3C)[C@@H]12` [himbacine], the activity at 2 µM was > 140%. With `COC(=O)C1=C(C)NC(C)=C(C(=O)OCCN(C)Cc2ccccc2)C1c1cccc([N+](=O)[O-])c1` (stereo not drawn) [nicardipine] the activity at 2 µM was > 150%. For `CN1CCN(CC(=O)N2c3ccccc3C(=O)Nc3cccnc32)CC1` [pirenzepine], the activity at 2 µM was > 140%. With `C=C[C@H]1C[N@@]2CC[C@H]1C[C@@H]2[C@@H](O)c1ccnc2ccc(OC)cc12` [quinidine sulfate] the activity at 2 µM was > 150%. With `S=C(NC1CCCCC1)N1CCC(c2cnc[nH]2)CC1` [thioperamide] the activity at 2 µM was > 150%.

Each molecule was assayed against T1, Rm3(GURC)-Rlu (assay: not given). Settings: [3H]NMS displacement, COS-7 cell homogenates.
`C[N+]1(C)CCC(OC(=O)C(c2ccccc2)c2ccccc2)CC1.[I-]` [4-DAMP] was tested, and the “decrease in binding affinity to the Rm3(GURC)-Rlu than the wild-type” value was 1 fold.
